{"source": "patent US5206220A", "about": "(Research Corporation Technologies, Inc., priority 1991, dated 1993)", "origin": "cited, not measured here", "conditions": "mice, 10 mmol/kg body weight; cited from earlier work", "data": [{"substance": "cyst(e)ine", "values": [{"measurement": "toxicity, single intraperitoneal dose", "result": "neurotoxic"}]}]}
